The numbers were not newly measured in patent publication US20150376703A1, “METHOD AND SYSTEM TO PREDICT RESPONSE TO PAIN TREATMENTS” (PATHWAY GENOMICS CORPORATION, priority 2013, published 2015), which cites them from elsewhere.

The target in the data set is mu-opioid receptor (OPRM1) (Homo sapiens, UniProt P35372, N40D). Conditions: OPRM1 G allele (Asn40Asp).

Consider beta-endorphin, for which the “increase in beta-endorphin binding at the receptor” value is given as 3 fold.
